Laboratory results from patent US9075014B2, “pH-responsive fluorescent false neurotransmitters and their use” (THE TRUSTEES OF COLUMBIA UNIVERSITY IN THE CITY OF NEW YORK, priority 2011, dated 2015).
Entries after “also recorded” stand apart in the source; their conditions may differ.

Chains of the proteins cited; added tags and fusions are not shown.
UniProt Q01827, whole entry: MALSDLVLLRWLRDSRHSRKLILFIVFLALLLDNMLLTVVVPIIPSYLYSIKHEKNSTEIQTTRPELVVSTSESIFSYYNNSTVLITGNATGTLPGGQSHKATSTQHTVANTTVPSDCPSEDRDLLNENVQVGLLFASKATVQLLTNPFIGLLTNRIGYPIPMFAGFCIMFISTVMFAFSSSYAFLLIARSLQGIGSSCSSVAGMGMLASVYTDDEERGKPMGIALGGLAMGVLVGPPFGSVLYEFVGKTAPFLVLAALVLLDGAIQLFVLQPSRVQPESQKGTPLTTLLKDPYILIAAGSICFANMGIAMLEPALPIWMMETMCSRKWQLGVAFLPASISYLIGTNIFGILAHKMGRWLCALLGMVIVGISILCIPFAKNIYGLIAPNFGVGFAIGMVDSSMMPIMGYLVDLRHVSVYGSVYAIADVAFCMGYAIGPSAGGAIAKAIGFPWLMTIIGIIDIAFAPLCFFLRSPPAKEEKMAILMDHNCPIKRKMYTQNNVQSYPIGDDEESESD

Molecular target: T1, VMAT2 (Rattus norvegicus, UniProt Q01827)
T1 construct: host or cells: HEK GnTI- (nonglycosylating) cells stably expressing VMAT2
Assay: Fluorescent microscopy probe uptake assay in VMAT2/HEK cells
Format: cell-based
Conditions: 1 μM inhibitor pre-incubation 1 hour, then 20 μM probe 30 min
Procedure: HEK GNTI^− (nonglycosylating) cell line stably expressing VMAT2 (VMAT2-HEK) and HEK GNU^− cell line stably transected with TetR (HEK) to serve as a control were kindly provided by the laboratory of Robert Edwards at UCSF. Cells were grown in DMEM+Glutamax (Invitrogen #10569) with 10% fetal bovine serum (FBS) (Atlanta Biologicals), 100 U/ml penicillin (Nitrogen), and 100 μg/ml streptomycin (Invitrogen). […] After 5 days, the cells looked fibroblastic and had reached ˜70% confluence. The medium was removed by aspiration, and the cells were washed with PBS (2 mL per well). […] Then, the probe uptake was initiated by adding 0.1 mL of experimental media containing probe (220 μM, prepared from 10 mM stock solution in DMSO, final conc.=20 μM in the uptake assay). After incubating at 37° C. for 30 minutes, the media was removed by aspiration, and the cells were washed with PBS (2 mL per well) and treated with probe-free experimental media. Fluorescence images were taken by using Leica FW 4000 equipped with Chroma custom filter cube (ex=350/50 nm, em=460/50 nm) and Hamamatsu digital camera C4742-95. The fluorescent images and bright field images were acquired for 2000 ms and 37 ms, respectively. All images were adjusted using the same contrast and brightness level using Images J (National Institute of Health).

Effect of VMAT2 inhibitor on probe uptake in VMAT2-HEK cells (listed as TBZ)	SMILES	Effect of VMAT2 inhibitor on probe uptake in VMAT2-HEK cells
	COC(=O)[C@H]1[C@H]2C[C@@H]3c4[nH]c5cc(OC)ccc5c4CCN3C[C@H]2C[C@@H](OC(=O)c2cc(OC)c(OC)c(OC)c2)[C@@H]1OC [reserpine, reference compound]	strongly diminished; also recorded: abolished the uptake
abolished the uptake	COc1cc2c(cc1OC)C1CC(=O)C(CC(C)C)CN1CC2 (stereo not drawn) [tetrabenazine, reference compound]	strongly diminished; also recorded: abolished
